What was measured:
GluN1/2A receptors = GluN1/2A receptors (Rattus norvegicus, UniProt P35439+Q00959); format: cell-based; settings: roughly twice the IC50 of each drug (3 μM 5, 5 μM 7, 2 μM 8, 1 μM 11); 9 voltages −105 to +55 mV; fit of Equation 3
NMDARs = settings: cited from earlier work

The chains behind the UniProt entries cited, without tags or fusion partners. Residues count along the entry.
UniProt Q00959, 23-1464: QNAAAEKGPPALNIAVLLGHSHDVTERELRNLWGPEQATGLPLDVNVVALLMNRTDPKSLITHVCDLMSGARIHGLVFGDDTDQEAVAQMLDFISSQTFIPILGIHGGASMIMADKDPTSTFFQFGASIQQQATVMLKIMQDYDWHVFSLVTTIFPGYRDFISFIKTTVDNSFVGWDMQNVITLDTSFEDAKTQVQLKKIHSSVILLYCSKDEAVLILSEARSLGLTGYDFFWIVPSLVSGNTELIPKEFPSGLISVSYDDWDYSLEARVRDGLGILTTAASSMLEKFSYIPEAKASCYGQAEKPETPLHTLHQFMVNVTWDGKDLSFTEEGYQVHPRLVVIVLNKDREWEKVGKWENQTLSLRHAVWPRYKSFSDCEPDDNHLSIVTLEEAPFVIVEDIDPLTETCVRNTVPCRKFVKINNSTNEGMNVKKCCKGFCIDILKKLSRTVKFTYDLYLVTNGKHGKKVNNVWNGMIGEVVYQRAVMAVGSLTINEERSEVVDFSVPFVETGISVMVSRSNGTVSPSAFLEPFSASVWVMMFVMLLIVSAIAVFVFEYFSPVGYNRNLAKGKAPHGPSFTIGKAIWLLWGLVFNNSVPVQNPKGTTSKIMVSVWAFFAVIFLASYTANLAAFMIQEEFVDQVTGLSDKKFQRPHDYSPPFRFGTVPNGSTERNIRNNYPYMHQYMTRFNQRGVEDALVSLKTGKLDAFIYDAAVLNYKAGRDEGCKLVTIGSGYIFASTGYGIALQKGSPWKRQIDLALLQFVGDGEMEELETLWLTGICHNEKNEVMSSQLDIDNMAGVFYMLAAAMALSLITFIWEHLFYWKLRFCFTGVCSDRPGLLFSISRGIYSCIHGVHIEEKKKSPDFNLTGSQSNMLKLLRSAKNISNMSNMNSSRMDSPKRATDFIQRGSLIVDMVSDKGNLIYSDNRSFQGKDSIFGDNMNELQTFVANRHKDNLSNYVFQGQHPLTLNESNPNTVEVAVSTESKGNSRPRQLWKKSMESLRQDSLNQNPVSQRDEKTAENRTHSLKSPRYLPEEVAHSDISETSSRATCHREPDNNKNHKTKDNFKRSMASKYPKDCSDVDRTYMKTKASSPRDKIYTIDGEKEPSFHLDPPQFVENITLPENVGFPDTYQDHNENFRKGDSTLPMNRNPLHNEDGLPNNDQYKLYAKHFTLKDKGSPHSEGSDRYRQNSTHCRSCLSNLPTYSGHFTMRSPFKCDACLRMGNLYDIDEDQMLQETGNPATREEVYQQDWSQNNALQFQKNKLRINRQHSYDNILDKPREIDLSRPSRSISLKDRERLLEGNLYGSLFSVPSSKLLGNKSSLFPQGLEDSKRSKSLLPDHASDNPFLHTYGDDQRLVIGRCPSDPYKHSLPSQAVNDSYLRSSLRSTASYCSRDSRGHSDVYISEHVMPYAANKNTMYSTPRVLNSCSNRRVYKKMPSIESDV

CC12CC3CC(C)(C1)CC(N)(C3)C2 [Compound 5, memantine, reference compound]
V0, change in voltage that results in an e-fold change in the IC50 (GluN1/2A receptors): 28.0 ± 2.2 mV | potency at NMDARs relative to amantadine (NMDARs): roughly fifty-fold more potent than amantadine
